Data on 4 compounds can be found in ChEMBL document CHEMBL4007444, “Development of New Benzenesulfonamides As Potent and Selective Nav1.7 Inhibitors for the Treatment of Pain” (J Med Chem, 2017).

Chains of the proteins cited; added tags and fusions are not shown.
UniProt Q15858, whole entry: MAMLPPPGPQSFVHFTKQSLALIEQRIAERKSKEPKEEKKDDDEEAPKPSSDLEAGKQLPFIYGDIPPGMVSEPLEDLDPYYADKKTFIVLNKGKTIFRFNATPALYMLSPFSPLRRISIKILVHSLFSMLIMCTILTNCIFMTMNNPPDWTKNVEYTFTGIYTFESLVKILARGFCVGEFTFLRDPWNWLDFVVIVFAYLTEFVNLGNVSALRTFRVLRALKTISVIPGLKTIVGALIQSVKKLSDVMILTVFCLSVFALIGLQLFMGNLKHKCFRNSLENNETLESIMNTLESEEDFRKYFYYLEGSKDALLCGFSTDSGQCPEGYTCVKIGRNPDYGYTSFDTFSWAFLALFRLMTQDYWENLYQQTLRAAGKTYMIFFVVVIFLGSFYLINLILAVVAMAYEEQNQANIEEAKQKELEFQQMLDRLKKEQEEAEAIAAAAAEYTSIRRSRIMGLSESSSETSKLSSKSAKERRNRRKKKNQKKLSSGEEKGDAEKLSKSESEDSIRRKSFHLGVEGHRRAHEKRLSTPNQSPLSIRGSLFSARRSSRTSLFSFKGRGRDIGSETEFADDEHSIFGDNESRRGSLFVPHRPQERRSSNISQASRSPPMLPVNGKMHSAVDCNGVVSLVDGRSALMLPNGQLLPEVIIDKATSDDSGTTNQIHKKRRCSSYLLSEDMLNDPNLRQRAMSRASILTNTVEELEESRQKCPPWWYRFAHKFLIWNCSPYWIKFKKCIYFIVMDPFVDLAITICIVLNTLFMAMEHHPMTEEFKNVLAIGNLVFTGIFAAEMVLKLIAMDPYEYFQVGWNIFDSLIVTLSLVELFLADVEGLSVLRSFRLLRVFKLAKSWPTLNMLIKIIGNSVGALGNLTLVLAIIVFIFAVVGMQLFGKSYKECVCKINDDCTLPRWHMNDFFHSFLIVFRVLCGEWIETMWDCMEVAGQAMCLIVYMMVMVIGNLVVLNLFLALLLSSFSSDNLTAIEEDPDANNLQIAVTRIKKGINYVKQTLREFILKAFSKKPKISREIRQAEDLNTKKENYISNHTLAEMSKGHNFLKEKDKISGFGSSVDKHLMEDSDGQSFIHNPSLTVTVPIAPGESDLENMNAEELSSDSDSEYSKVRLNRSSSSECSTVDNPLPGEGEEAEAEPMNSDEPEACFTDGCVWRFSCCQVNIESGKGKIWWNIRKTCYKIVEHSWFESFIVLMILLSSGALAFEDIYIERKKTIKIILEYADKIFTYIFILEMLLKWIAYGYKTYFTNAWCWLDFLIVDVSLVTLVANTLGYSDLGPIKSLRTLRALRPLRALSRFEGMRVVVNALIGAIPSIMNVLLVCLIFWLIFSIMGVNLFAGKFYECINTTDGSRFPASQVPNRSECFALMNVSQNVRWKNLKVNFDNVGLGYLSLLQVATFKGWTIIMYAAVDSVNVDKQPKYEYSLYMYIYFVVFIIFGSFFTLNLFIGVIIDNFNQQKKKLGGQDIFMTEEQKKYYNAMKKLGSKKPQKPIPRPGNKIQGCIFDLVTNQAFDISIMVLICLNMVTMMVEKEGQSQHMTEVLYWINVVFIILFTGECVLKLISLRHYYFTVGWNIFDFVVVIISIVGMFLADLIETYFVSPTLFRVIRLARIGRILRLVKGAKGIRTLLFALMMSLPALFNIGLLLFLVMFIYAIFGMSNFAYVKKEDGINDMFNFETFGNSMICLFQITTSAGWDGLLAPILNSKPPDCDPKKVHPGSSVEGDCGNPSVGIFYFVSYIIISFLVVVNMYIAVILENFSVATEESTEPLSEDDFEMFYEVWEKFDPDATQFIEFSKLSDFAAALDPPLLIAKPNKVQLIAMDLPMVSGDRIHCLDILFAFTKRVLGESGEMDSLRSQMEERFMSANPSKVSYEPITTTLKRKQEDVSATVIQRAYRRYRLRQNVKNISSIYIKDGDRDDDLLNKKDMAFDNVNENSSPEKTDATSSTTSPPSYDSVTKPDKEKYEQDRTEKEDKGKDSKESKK

pIC50: −log10 of the molar value.

In the assay the target is Sodium channel protein type 9 subunit alpha (Homo sapiens, UniProt Q15858). Kind of assay: Inhibition of recombinant human Nav1.7 expressed in HEK293 cells assessed as reduction in peak inward current at -60 mV holding potential measured after 600 secs by IonWorks Barracuda patch-clamp assay. In kind it is cell-based. In a few lines:
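HEK293 cells expressing the channel, measured by population patch clamp on IonWorks Barracuda. […] Internal: K-gluconate/KCl, pH 7.2. Compound incubated 600 s between pre- and post-compound reads. Nav1.7: held at -60 mV, 300 ms at -100 mV, then 20 ms test pulse to -20 mV. Nav1.5: held at -40/-50 mV, 300 ms at -100 mV, then step to -10 mV to inactivate.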
`N[C@H]1CC[C@@](CCNc2cc(F)c(S(=O)(=O)Nc3nccs3)cc2Cl)(c2ccccc2)CC1`: the pIC50 was 6.79.
Consider `CN[C@H]1CC[C@@](CCOc2cc(F)c(S(=O)(=O)Nc3ncns3)cc2F)(c2ccccc2)CC1`, for which the negative logarithm of the IC50 (pIC50) is 6.02.
Take `N[C@H]1CC[C@](CCNc2cc(F)c(S(=O)(=O)Nc3nccs3)cc2Cl)(c2ccccc2)CC1`: the pIC50 was 8.05.
`O=S(=O)(Nc1nccs1)c1cc(Cl)c(NCCC2CCCCN2)cc1F` (racemic): the pIC50 is 8.08.
